By UniProt entry, the sequences of proteins in these tests, tags left out. Residues count along the entry.
UniProt P10632, whole entry: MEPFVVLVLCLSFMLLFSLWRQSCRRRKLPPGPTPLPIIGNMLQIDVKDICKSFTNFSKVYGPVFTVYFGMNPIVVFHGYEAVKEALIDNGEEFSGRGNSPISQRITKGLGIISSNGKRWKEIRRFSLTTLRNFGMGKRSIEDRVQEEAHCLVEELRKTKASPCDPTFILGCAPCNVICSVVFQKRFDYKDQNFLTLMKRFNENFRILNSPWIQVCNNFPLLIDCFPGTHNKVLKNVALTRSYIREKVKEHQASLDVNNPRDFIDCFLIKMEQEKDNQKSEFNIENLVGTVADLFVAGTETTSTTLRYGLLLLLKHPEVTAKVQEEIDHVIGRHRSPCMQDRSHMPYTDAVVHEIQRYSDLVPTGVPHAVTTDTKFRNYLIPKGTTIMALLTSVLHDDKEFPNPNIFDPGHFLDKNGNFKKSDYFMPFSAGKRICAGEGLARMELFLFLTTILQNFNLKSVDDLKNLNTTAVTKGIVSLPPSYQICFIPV
UniProt P08684, 2-503: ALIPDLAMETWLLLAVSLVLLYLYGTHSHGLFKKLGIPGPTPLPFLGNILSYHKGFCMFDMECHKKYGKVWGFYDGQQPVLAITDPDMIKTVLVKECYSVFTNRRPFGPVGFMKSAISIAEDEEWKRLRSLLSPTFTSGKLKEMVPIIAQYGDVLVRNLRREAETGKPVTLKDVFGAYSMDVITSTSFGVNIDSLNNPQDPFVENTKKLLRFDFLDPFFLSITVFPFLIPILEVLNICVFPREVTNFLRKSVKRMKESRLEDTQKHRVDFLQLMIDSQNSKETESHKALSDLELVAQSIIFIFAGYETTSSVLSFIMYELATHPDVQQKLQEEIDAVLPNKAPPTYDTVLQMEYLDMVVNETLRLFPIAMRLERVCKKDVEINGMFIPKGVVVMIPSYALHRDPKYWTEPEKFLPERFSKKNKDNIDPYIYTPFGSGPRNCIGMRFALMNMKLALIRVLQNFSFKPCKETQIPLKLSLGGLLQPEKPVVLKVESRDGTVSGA

In publication PMC8000448, “Inhibitory Effects of Schisandra Lignans on Cytochrome P450s and Uridine 5′-Diphospho-Glucuronosyl Transferases in Human Liver Microsomes” (Pharmaceutics, 2021):

Assays:
[1] = biological target: T1, CYP2C8 (Homo sapiens, UniProt P10632); assay: CYP2C8 inhibition in HLMs (amodiaquine); format: in vitro ADME; conditions: reversible inhibition, read-out: IC50 RI, CYP2C8
T1 construct: pooled HLMs (0.25 mg/mL); tissue XenoTech H2630; host or cells: pooled human liver microsomes, mixed gender
Experimental: Lignans were first dissolved in methanol. […] All microsomal incubations were performed in triplicate.

[2] = biological target: CYP3A (Homo sapiens, UniProt P08684); assay: CYP3A inhibition in HLMs (midazolam, nifedipine, testosterone); conditions: human, pooled human liver microsomes, IC50 TDI, 30 min pre-incubation with NADPH generating system;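 further: pooled HLMs at 0.25 mg/mL in phosphate buffer, inhibitor across 0–50 µM, 10 min reaction at 37 °C after preincubation, probe metabolite quantified by LC-MS/MS, triplicate incubations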

Structure (SMILES) | IC50 [1] | IC50 at 10 min ([2]; pH 7.4, probe nifedipine (cocktail set B), CYP3A (nifedipine), nifedipine) [µM] | IC50 at 10 min ([2]; pH 7.4, probe testosterone (cocktail set B), CYP3A (testosterone), testosterone) [µM]
COc1cc2c(c(OC)c1OC)-c1c(cc3c(c1OC)OCO3)C[C@H](C)[C@](C)(O)[C@H]2OC(=O)c1ccccc1 [Gomisin C, gomisin C] | 16.5 µM and 10.9 µM |  | 
COc1c2c(cc3c1-c1c(cc4c(c1OC)OCO4)C[C@H](C)[C@H](C)C3)OCO2 [Wuweizisu C, wuweizisu C] |  | 1.2 | 1.2

“And” between values parts separate entries of the source, which are not always exact repeats. Identical values can stand only once.
